For this assay, the system named is human lung cancer EBC-1 xenograft. The assay is described as follows: Test IV: human non-small cell lung cancer EBC-1 xenograft growth in nude mice. It is filed as in vivo. Particulars: for mice exhibiting complete tumor regression at day 11: 100 mg/kg po; for inhibition against tumor growth of EBC-1 subcutaneous xenograft (in words): 50 and 100 mg/kg po daily, d21. On the procedure: EBC-1 cells were implanted subcutaneously in the right axilla of nude mice at 5×10^6 cells per mouse, xenograft developed thereby was passaged in nude mice for 3 generations prior to use. Tumor tissue at rapid growth phase was taken, minced under sterile condition into pieces of about 1.5 mm^3, then implanted subcutaneously in the right axilla of nude mice.
Xenografted tumor diameters were measured twice per week, and body weights of the mice were measured at the same time. Tumor Volume (TV) was calculated by the following equation: TV=1/2×a×b^2, wherein a, b refers to the length and width, respectively. Based on the measurement, Relative Tumor Volume (RTV) was calculated by the following equation: RTV=Vt/V0, wherein V0 is the tumor volume measured when divided for administration (i.e., do), Vt is the tumor volume measured at each timepoint.
A general note: Xenograft models place foreign cells or tissue in a host animal.

With `CN1CCN(C(=O)c2ccc(-c3cnc4cnn(S(=O)(=O)c5cnc6ccc(-c7cnn(C)c7)cn56)c4c3)cc2)CC1` [Example 142, 1-{(6-[(1-methyl)-4-pyrazolyl]-imidazo[1,2-a]pyridine)-3-sulfonyl}-6-[4-(4-methylpiperazine-1-carbonyl)phenyl]-1-H-pyrazolo[4,3-b]pyridine], the “mice exhibiting complete tumor regression at day 11” value was “two” and the “inhibition against tumor growth of EBC-1 subcutaneous xenograft (in words)” value is “very significant dose dependent inhibition”.

On to `CC(C)N1CCC(n2cc(-c3cnc4cnn(S(=O)(=O)c5cnc6ccc(-c7cnn(C)c7)cn56)c4c3)cn2)CC1` [Example 145, 1-{(6-[(1-methyl)-4-pyrazolyl]-imidazo[1,2-a]pyridine)-3-sulfonyl}-6-{(1-[(1-isopropyl)-4-piperidinyl]}-4-pyrazolyl}-1-H-pyrazolo[4,3-b]pyridine], for which the “mice exhibiting complete tumor regression at day 11” value is recorded as “two” and the “inhibition against tumor growth of EBC-1 subcutaneous xenograft (in words)” value is “very significant dose dependent inhibition”. Moreover, the “mice exhibiting complete tumor regression at day 18” value (50 mg/kg po, day 18) is “two”.

For the origin of these results see US9988381B2, “Five-member-heterocycle fused pyridine compounds, method of producing the same, and use thereof” (SHANGHAI INSTITUTE OF MATERIA MEDICA, CHINESE ACADEMY OF …, priority 2013, dated 2018).
